In paper PMC7807051, “Modulation of cAMP metabolism for CFTR potentiation in human airway epithelial cells” (Scientific Reports, 2021) one finds IC50 data, which are given here for one molecule.

Amino acid sequences for entries named in this document (tags omitted). A change or cut given only in a name is not applied to a line headed by its entry.
UniProt O15439: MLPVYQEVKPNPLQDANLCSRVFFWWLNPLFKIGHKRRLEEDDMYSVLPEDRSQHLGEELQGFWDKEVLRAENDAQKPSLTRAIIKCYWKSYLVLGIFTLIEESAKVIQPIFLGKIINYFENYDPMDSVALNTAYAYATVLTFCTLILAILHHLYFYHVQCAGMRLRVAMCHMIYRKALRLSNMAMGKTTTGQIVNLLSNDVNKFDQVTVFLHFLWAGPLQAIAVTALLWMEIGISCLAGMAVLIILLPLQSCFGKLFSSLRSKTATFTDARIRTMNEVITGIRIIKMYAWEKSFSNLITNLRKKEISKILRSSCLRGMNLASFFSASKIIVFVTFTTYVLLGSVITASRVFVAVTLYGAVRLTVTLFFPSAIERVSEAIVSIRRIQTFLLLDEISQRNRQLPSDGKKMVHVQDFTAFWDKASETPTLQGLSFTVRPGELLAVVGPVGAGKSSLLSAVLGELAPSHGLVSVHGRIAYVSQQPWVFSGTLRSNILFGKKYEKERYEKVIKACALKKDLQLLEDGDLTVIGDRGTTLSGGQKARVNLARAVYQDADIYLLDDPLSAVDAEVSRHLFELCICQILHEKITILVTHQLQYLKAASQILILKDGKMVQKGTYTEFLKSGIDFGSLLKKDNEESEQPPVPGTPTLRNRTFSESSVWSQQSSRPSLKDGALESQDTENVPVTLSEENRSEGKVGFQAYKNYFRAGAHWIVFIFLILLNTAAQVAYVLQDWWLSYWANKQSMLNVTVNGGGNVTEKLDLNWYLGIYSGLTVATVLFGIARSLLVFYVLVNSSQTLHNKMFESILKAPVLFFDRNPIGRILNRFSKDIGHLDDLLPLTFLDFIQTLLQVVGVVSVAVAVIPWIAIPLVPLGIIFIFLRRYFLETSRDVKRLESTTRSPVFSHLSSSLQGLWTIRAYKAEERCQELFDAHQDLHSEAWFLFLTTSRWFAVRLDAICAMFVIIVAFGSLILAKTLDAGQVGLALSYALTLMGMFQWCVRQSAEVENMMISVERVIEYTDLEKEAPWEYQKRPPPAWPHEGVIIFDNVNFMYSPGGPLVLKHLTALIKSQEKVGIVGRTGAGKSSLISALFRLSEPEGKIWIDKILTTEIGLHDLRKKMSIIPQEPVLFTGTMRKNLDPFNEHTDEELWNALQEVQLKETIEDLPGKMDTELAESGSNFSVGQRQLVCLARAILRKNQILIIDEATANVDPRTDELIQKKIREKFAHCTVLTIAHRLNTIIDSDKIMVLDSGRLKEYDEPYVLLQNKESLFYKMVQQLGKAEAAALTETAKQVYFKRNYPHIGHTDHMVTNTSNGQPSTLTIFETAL

Test [1] addresses T1, ABCC4 (Homo sapiens, UniProt O15439).
T1 construct: ABCC4 was present in both HBEC6-KT and Calu-3 cells at all-time points, indicated by the bands present at 150 kDa; endogenous in cells; host or cells: HBEC6-KT (immortalized human bronchial epithelial cells)
As to the kind of experiment: In vitro extracellular cAMP assay of ABCC4 inhibitors in Calu-3 cells. Format: cell-based. Conditions: IBMX 20 μM pre-treatment, forskolin 10 μM, normalized to IBMX + forskolin, read-out: half maximal inhibitory concentration (IC50), extracellular cAMP. As for the experimental part: Figure 1 Concentration–response analysis of compounds with ABCC4 inhibition properties on extracellular cAMP from human airway epithelial cells. Human airway epithelial (Calu-3) cells were pre-treated with IBMX (20 μM), exposed to (a) MK-571, (b) Ceefourin-1, or DMSO vehicle control, and then treated with forskolin (10 μM). Cell culture supernatants were assessed for cAMP levels 24 h post-treatment. Each concentration–response curve was normalized to positive control (IBMX + forskolin) with data presented as means ± standard deviations (n = 3, MK-571; n = 3, Ceefourin-1).
(§1) Calu-3 and HBEC6-KT cells were cultured as described previously[41],[42],[71],[72]. Cells were pretreated with IBMX (20 μM) for 2 h prior to experimental conditions. After the pre-treatment of IBMX, cells were treated with ABCC4 inhibitors (0.01–100 μM) or DMSO for 30 min. Following these exposures, the cells were treated with forskolin (10 μM) for 6 h and cell-culture supernatants were collected for analysis of extracellular cAMP. The negative control was IBMX alone and the positive control was IBMX and forskolin.
(§2) For the in vitro extracellular cAMP assay, values were normalized to the positive control (IBMX and forskolin) and the half maximal inhibitory concentration (IC50) was determined. SD was calculated using data from biological replicates (n = 4–5).

For test [2], the target named is T1, ABCC4. As to the kind of experiment: In vitro extracellular cAMP assay of ABCC4 inhibitors in HBEC6-KT cells. Format: cell-based. Conditions: IBMX 20 μM pre-treatment, forskolin 10 μM, normalized to IBMX + forskolin, read-out: half maximal inhibitory concentration (IC50), extracellular cAMP. As for the experimental part: as §1, §2
Supplementary Figure 1: Concentration-response analysis of compounds with ABCC4 inhibition properties on extracellular cAMP from human airway epithelial cells. Human airway epithelial (HBEC6-KT) cells were pre-treated with IBMX (20 μM), exposed to (a) MK-571, (b) Ceefourin-1, or DMSO vehicle control, and then treated with forskolin (10 μM). Cell culture supernatants were assessed for cAMP levels 24h post-treatment. […] Each concentration-response curve was normalized to positive control (IBMX + forskolin) with data presented as means ± standard deviations (n=4, MK-571; n=5, Ceefourin-1).
For orientation: Cyclic AMP is a second messenger, typically raised through Gs and lowered through Gi signalling.

Each structure is given as a SMILES string.

In the case of `CN(C)C(=O)CCSC(SCCC(=O)O)c1cccc(/C=C/c2ccc3ccc(Cl)cc3n2)c1` (centres unmarked) [MK-571], the figures for the IC50 on ABCC4 [1] and on ABCC4 [2] were 2600 nM and 200 nM, respectively.
